Assay outcomes: PubChem BioAssay, National Center for Advancing Translational Sciences (NCATS)
The sample as a whole holds a higher share of hits than the screen did.
Rango release inh – qHTS Assay for Inhibitors of RanGTP induced Rango (Ran-regulated importin-beta cargo) - Importin beta complex dissociation; Biochemical FRET Rango-importin beta, RanGTP-induced dissociation; 340,000 compounds, 0.071% hits; Potency, µM (titrated, usually from 46.1 µM), inactives show top-dose activity change, negative = inhibition; AID 540253, 2011; Snurportin-1 (Homo sapiens) + GTP-binding nuclear protein Ran (Homo sapiens) + Importin …; further: potency means the concentration at half of the fitted maximal effect; % of control where 0% means no effect; nearly all actives have a fitted effect of over 45% in size
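FRET read at 45 min, room temperature: inhibitors block the CFP/YFP signal rise when RanGTP (0.6 uM Ran, 2 mM GTP, 0.2 uM RCC1) frees Rango (0.1 uM) from importin beta (0.25 uM). Pre-read after 5 min compound exposure flags interference.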
MBNL1-CUG inh – qHTS Assay for Inhibitors of MBNL1-poly(CUG) RNA binding | 280,000 compounds, 0.036% hits | AID 2675, 2010 | TR-FRET MBNL1-His/biotin-(CUG)12 binding, 665/545 ratio | Potency, µM (series often up to 57.5 µM), without a hit: at the highest dose activity change, negative = inhibition, usual class: inhibitors; active means well fitted inhibition curve with a large enough effect in the signal ratio, with a control signal flat, not every such curve was filed as active; inconclusive means small, poorly fitted or top-dose-only effect, or effect the other way, or a change in a side signal; inactive means no such curve, though single readings can be large or run the other way; the % refers to the signal ratio; further: potency means the concentration at half of the fitted maximal effect; on the % scale 0 is the no-effect control and ±100 the full control effect
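TR-FRET between His-tagged MBNL1 and biotin-(CUG)12 RNA, detected with Tb anti-His antibody (0.055 ng/ul) and streptavidin-XL665 (5 nM), 60 min at room temperature. Compounds titrated 92 nM to 58 uM; 665/545 nm ratio normalized to buffer and complex controls.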
ClpP mod – qHTS Assay for Activators of ClpP; 340,000 compounds, 1.9% hits; ATP-dependent Clp protease proteolytic subunit (Bacillus subtilis (strain 168)), P80244; purified B. subtilis ClpP, FRET peptide cleavage, 20 min; Potency, µM (doses to about 57.5 µM), without a hit: at the top dose activity change, negative = active; AID 651965, 2013; active means well fitted falling curve with a large enough effect; inconclusive means small, poorly fitted or top-dose-only effect; inactive means no such curve, though single readings can be large or run the other way; further: potency means the concentration at half of the fitted maximal effect; the source files actives as falling curves though it sought activators and does not explain the sign; nearly all actives have a fitted effect of over 65% in size
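FRET quenching reversal measured ClpP activation: 10 microg/mL B. subtilis ClpP at pH 8 with the FRET-FV decapeptide, read at 430 nm after 320 nm excitation. The 20-min minus 0-min signal was scaled between DMSO/no-enzyme wells and ADEP (5.8 microM final).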
CBFb RUNX1 block – qHTS Assay for Compounds Blocking the Interaction Between CBF-beta and RUNX1 for the Treatment of Acute Myeloid Leukemia. Runt-related transcription factor 1 (Homo sapiens) + Core-binding factor subunit beta …. AlphaScreen CBFb-His/RUNX1-biotin binding, biochemical. Potency, µM (titrated, usually from 59.8 µM), for the others: at the top dose activity, negative = inhibition, most hits filed as inhibitors. 230,000 tested, under 10 active; active means well fitted curve in the direction sought with a large enough effect; inconclusive means small, poorly fitted or top-dose-only effect, or effect the other way, or another doubt; inactive means no such curve, though single readings can be large or run the other way; further: % of control where 0% means no effect
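Room-temperature protein-protein interaction test with 30 nM each of His-tagged CBF-beta and biotinylated RUNX1, 15 min with compound, then 90 min with nickel plus streptavidin beads. Signal read in AlphaScreen mode.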
Rango complex inh – qHTS Assay for Inhibitors of Rango (Ran-regulated importin-beta cargo) - Importin beta complex formation; Importin subunit beta-1 (Homo sapiens), Q14974; Rango CFP/YFP FRET sensor + importin beta, 45 min; Potency, µM (doses to about 92.2 µM), inactives show top-dose inhibition of complex formation; 340,000 compounds, 0.031% hits; AID 540263, 2011;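 further: potency means the concentration at half of the fitted maximal effect; 0% = DMSO wells and 100% = buffer wells lacking importin beta; nearly all actives have a fitted effect of over 15% in size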
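FRET biosensor (snurportin 1 IBB flanked by EYFP and cerulean), 50 nM, with compound 5 min, then 0.125 microM importin beta in PBS, 1 mM DTT, 0.02% Tween-20, 0.1% BSA. CFP/YFP ratio read after 45 min at room temperature; pre-read flags interference.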
* marks the source's active call; other numbers are inactive results; ? = inconclusive; / = no result given. Unless noted, the call rests on the fitted dose curve.

Protein sequences, listed by entry. Tags and fused reporters are not part of them.
ATP-dependent Clp protease proteolytic subunit (Bacillus subtilis (strain 168)), P80244, UniProt P80244, whole entry, looked up: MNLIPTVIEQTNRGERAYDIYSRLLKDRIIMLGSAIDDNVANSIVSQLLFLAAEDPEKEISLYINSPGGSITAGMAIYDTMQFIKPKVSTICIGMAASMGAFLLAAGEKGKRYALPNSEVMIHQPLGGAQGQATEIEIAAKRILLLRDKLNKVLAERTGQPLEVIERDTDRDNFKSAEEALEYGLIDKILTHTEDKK
Importin subunit beta-1 (Homo sapiens), Q14974, UniProt Q14974, whole entry, looked up: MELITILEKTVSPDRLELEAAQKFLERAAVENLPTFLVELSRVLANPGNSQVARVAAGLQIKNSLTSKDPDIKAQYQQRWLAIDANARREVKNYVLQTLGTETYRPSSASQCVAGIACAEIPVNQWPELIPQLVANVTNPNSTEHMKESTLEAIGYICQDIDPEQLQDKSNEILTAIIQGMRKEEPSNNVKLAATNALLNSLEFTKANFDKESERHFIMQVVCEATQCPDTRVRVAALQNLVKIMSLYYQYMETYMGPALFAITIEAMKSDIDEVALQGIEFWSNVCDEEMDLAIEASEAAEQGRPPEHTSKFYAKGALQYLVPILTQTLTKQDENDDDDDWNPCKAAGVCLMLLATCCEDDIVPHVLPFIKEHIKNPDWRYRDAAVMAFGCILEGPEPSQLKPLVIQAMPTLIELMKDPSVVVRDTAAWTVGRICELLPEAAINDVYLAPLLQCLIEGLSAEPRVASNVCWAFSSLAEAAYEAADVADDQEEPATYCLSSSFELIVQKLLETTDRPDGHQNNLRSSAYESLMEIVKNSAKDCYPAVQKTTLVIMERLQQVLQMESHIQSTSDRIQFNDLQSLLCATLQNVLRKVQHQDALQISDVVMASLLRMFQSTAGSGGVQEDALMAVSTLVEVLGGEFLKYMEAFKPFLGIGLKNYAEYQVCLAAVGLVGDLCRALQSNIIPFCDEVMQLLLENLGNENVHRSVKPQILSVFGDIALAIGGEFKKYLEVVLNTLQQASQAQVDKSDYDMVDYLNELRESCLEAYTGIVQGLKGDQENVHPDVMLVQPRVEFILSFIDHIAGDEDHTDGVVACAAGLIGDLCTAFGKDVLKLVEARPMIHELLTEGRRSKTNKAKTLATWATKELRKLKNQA

SMILES	Rango release inh	MBNL1-CUG inh	ClpP mod	CBFb RUNX1 block	Rango complex inh
CN1/C(=C\C=C2/SC(=S)NC2=O)C(C)(C)c2ccccc21	?	?	-2%	?	23µM*
CN1C(=CC=C2C=C(I)C(=O)C(I)=C2)C(C)(C)c2ccccc21	-7%	?	/	-12%	1%
NC(N)=NCCC[C@H](NC(=O)[C@@H](N)Cc1ccc(O)cc1)C(=O)O	/	/	/	11%	/
Cc1ccc(NC(=O)Cn2c(=O)n(Cc3nc(C)no3)c(=O)c3cc4c(cc32)OCO4)c(Cl)c1	/	/	6%	/	/
Cc1noc(Cn2c(=O)c3cc4c(cc3n(CC(=O)Nc3ccccc3Br)c2=O)OCO4)n1	/	/	11µM*	/	/
CCOc1ccc(NC(=O)Cn2c(=O)n(Cc3nc(-c4ccccc4)no3)c(=O)c3cc4c(cc32)OCO4)cc1	/	/	25µM*	/	/
Cc1cc(NC(=O)c2ccccc2)n(C(C)(C)C)n1	2%	4%	-3%	2%	-1%
Cc1cc(NC(=O)c2ccccc2Cl)n(C(C)(C)C)n1	-19%	-20%	16µM*	9%	1%
CC[C@@H](C(=O)[C@@H](C)[C@@H](O)[C@H](C)CCc1ccc(C)c(O)c1C(=O)O)C1O[C@](CC)(C2CC[C@](O)(CC)[C@H](C)O2)C[C@@H]1C (stereo partly specified)	/	/	/	6%	/
O=C(CSc1nnc(-c2ccccc2)c(-c2ccccc2)n1)N1CCOCC1	2%	?	1%	4%	0%

Reprinted from the part before: 5 entries; new compounds follow.
SMILES	Rango release inh	MBNL1-CUG inh	ClpP mod	CBFb RUNX1 block	Rango complex inh
CCOc1ccc(NC(=O)Cn2c(=O)n(Cc3nc(-c4ccccc4)no3)c(=O)c3cc4c(cc32)OCO4)cc1	/	/	25µM*	/	/
Cc1cc(NC(=O)c2ccccc2)n(C(C)(C)C)n1	2%	4%	-3%	2%	-1%
Cc1cc(NC(=O)c2ccccc2Cl)n(C(C)(C)C)n1	-19%	-20%	16µM*	9%	1%
CC[C@@H](C(=O)[C@@H](C)[C@@H](O)[C@H](C)CCc1ccc(C)c(O)c1C(=O)O)C1O[C@](CC)(C2CC[C@](O)(CC)[C@H](C)O2)C[C@@H]1C (stereo partly specified)	/	/	/	6%	/
O=C(CSc1nnc(-c2ccccc2)c(-c2ccccc2)n1)N1CCOCC1	2%	?	1%	4%	0%
O=C(CSc1nc(-c2ccccc2)c(-c2ccccc2)o1)N1CCOCC1	-15%	7%	32µM*	-7%	5%
O=[N+]([O-])c1ccc(Nc2nc(NCCN3CCOCC3)nc(Nc3ccc(Cl)cc3)n2)cc1	/	/	-1%	/	/
CCN(CC)S(=O)(=O)c1ccc2c(c1)N(CC(=O)N1CCN(c3ccc(OC)cc3)CC1)C(=O)CO2	/	/	-1%	/	/
COc1ccc(S(=O)(=O)N2CCN(C(=O)CNC(=O)c3ccc4c(c3)OCO4)CC2)cc1	21%	/	28µM*	/	0%
Cc1cc(C)cc(NS(=O)(=O)c2ccc3c(c2)OCC(C(=O)N2CCCC2)O3)c1 (stereo unspecified)	/	/	0%	/	/
Cc1ccc(C)c(Cn2c(=O)n(-c3ccc(Cl)cc3)c(=O)c3c(C)c(C)sc32)c1	/	/	0%	/	/
Cc1ccc(OCC(=O)N(Cc2ccccc2)C(C)(C)C)c([N+](=O)[O-])n1	-4%	?	-2%	1%	-3%
Cc1ccc(OCC(=O)N(Cc2ccccc2)C(C)C)c([N+](=O)[O-])n1	10%	/	3.2µM*	-8%	1%
COc1ccc(CCNS(=O)(=O)c2cc3c4c(c2)C(C)C(=O)N4CCC3)cc1OC (stereo unspecified)	16µM*	-4%	-2%	/	-4%
O=CN/C=C/c1cc(O)ccc1O	-8%	15%	22µM*	/	0%
CCc1ccc(NC(=O)CC2C(=O)N(c3cccc(C)c3)C(=O)N2Cc2cccs2)cc1 (stereo unspecified)	/	/	-1%	/	/
Cc1nc(-c2ccc(Cl)cc2)sc1C1(C)CC(c2ccccc2Br)=NO1 (stereo unspecified)	-8%	/	25µM*	/	-1%
COc1ccccc1C1=NOC(C)(c2sc(-c3ccc(Cl)cc3)nc2C)C1 (stereo unspecified)	0%	-5%	?	19%	0%
COc1cc(NC(=O)CCCN2C(=O)CCn3nc(-c4cn(C)c5ccccc45)cc32)cc(OC)c1	/	/	-3%	/	/
c1csc(-c2cnc3ccccc3n2)c1	-10%	?	6.3µM*	13%	-1%
CN(CC(=O)O)c1ccc(/C=C2\C=Cc3ccccc32)cc1	/	/	1%	/	/
